# In patent US9222059B2, “Cleaning formulations with improved surfactant solubility and methods of production and use thereof” (The Sun Products Corporation, priority 2011, dated 2015):
# Assay: Storage stability (Pass/Fail) of base liquid detergent formulation with 9.5% EMES plus candidate hydrotrope
# Format: physicochemical
# [1] = material 3.00 % w/v in base detergent with 9.5% EMES
# [2] = material 4.00 % w/v in base detergent with 9.5% EMES
# [3] = material 5.00 % w/v in base detergent with 9.5% EMES
smiles,measurement,setting,value
OCCN(CCO)CCO,40° F. storage,[1],Fail
same,105° F. storage,[1],Pass
same,125° F. storage,[1],Pass
same,Freeze/Thaw storage,[1],Pass
same,Room Temp. storage,[1],Pass
same,40° F. storage,[2],Fail
same,105° F. storage,[2],Pass
same,125° F. storage,[2],Pass
same,Freeze/Thaw storage,[2],Pass
same,Room Temp. storage,[2],Pass
same,40° F. storage,[3],Fail
same,105° F. storage,[3],Pass
same,125° F. storage,[3],Pass
same,Freeze/Thaw storage,[3],Pass
same,Room Temp. storage,[3],Pass
